Here are results for 5 compounds from patent publication US10023614B2, “Oral peptide inhibitors of interleukin-23 receptor and their use to treat inflammatory bowel diseases” (Protagonist Therapeutics, Inc., priority 2014, dated 2018).

pIC50: −log10 of the molar value. Read-outs that look alike come from different tables or passages of the source.

In one assay the target is human IL-23R (Homo sapiens, UniProt Q5VWK5). Type of assay: binding.
Assay [1] deals with T1, Natural killer (NK) cells (Homo sapiens, UniProt Q5VWK5).
T1 sequence (Q5VWK5 24-629): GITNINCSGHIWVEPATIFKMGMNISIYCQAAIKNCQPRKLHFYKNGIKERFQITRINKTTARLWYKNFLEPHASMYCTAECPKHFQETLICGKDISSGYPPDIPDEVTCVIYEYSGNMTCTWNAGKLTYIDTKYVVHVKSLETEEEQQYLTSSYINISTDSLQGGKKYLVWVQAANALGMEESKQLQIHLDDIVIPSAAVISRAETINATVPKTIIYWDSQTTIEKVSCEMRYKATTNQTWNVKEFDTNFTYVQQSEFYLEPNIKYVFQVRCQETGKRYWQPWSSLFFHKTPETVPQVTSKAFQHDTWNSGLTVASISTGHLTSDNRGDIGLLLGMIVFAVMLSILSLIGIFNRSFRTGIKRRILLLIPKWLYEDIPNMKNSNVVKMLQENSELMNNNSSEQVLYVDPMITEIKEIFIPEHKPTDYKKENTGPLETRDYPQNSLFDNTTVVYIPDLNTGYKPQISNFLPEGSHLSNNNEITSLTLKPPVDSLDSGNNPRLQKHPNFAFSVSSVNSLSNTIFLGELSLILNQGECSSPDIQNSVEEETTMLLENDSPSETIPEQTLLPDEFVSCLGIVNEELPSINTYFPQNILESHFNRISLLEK
Nature of the assay: NK Cell Assay (IL-23-dependent IFNγ production). To be noted: Table 14. In kind it is cell-based.

The mark [2] stands for this setting: Table 3H, read-out: Human IL23/IL23R ELISA.

Take `CC(=O)NCC(=O)N[C@H](CC(N)=O)C(=O)N[C@H](CCC(=O)O)C(=O)N[C@H](CC(C)C)C(=O)N[C@H](Cc1c[nH]c2ccccc12)C(=O)N[C@H](Cc1ccc(O)cc1)C(=O)N[C@@H]1CSSC[C@H](C(N)=O)NC(=O)[C@@H](CCC(N)=O)NC(=O)[C@@H]([C@H](C)O)NC(=O)[C@@H](Cc2c[nH]c3ccccc23)NC(=O)[C@@H](CCC(N)=O)NC1=O` [compound 502]: at human IL-23R (setting [2]), the pIC50 was below 4.52. In assay [1], `COc1ccc(C[C@H](NC(=O)[C@H]2NC(=O)[C@H](CCC(N)=O)NC(=O)[C@H](Cc3c[nH]c4ccccc34)NC(=O)[C@H]([C@@H](C)O)NC(=O)[C@H](CC(N)=O)NC(=O)[C@@H](NC(=O)[C@@H](Cc3ccccc3)NC(C)=O)C(C)(C)SSC2(C)C)C(=O)N[C@@H](Cc2ccc3ccccc3c2)C(=O)NC2(C(=O)N[C@@H](CCCNC(N)=O)C(=O)N[C@@H](CC(N)=O)C(=O)N[C@@H](CC(N)=O)C(N)=O)CCOCC2)cc1` [compound 1048] had a pIC50 above 8.00.

Regarding `CC(=O)N[C@H]1CSSC[C@@H](C(=O)N[C@@H](Cc2ccc(O)cc2)C(=O)N[C@@H](Cc2c[nH]c3ccccc23)C(=O)N[C@@H](CCC(N)=O)C(=O)N[C@@H](CCC(=O)O)C(=O)N[C@@H](CCCCN)C(=O)NCC(=O)N[C@H](C(=O)N[C@@H](CC(=O)O)C(N)=O)[C@@H](C)O)NC(=O)[C@H](CCC(N)=O)NC(=O)[C@H](Cc2c[nH]c3ccccc23)NC(=O)[C@H]([C@@H](C)O)NC(=O)[C@H](CCCNC(=N)N)NC1=O` [compound 397], the pIC50 on human IL-23R (setting [2]) is 6.93. On to `CC(=O)N[C@H]1CSSC[C@@H](C(=O)N[C@@H](Cc2ccc(O)cc2)C(=O)N[C@@H](Cc2ccc(-c3ccccc3)cc2)C(=O)N[C@@H](CCCN)C(=O)N[C@@H](CN)C(=O)N[C@@H](Cc2ccccc2)C(=O)NCC(=O)NCCOCC(=O)N[C@H](CCCCN)C(N)=O)NC(=O)[C@H](C(C)C)NC(=O)[C@H](Cc2c[nH]c3ccccc23)NC(=O)[C@H](CC(=O)O)NC(=O)[C@H](C)NC1=O` [compound 72], for which the pIC50 on human IL-23R (Table 3G, read-out: Human ELISA IL23/IL23R) was below 4.52. As for `CC(=O)N[C@H]1CSSC[C@@H](C(=O)N[C@@H](Cc2ccc(O)cc2)C(N)=O)NC(=O)[C@H](C(C)C)NC(=O)[C@H](Cc2c[nH]c3ccccc23)NC(=O)[C@H](CC(=O)O)NC(=O)[C@H](C)NC1=O` [compound 381], the pIC50 at human IL-23R (setting [2]) was below 4.52.
